In US10323013B2, “Inhibitors of the IRE-1/XBP-1 pathway and methods of using thereof” (H. LEE MOFFITT CANCER CENTER AND RESEARCH INSTITUTE, INC., priority 2013, dated 2019):

Test system: XBP-1s expression
Assay: Inhibition of XBP-1s expression in LPS-stimulated mouse B cells (immunoblots)
Format: cell-based
Settings: LPS 48 h, then inhibitor 20 μM for 24 h (Example 3 prints 20 mM)
Protocol: The protein concentrations of the supernatants were determined by BCA assay (Pierce).
An inverse correlation between pharmacological inhibition of XBP-1s and expression level of IRE-1 (FIG. 40A) was observed.

## C=CCOC(=O)N1CCc2c(c(=O)oc3c(C(=O)OC)c(O)ccc23)C1 [Compound 41, 3-allyl 7-methyl 8-hydroxy-5-oxo-4,5-dihydro-1H-chromeno[3,4-c]pyridine-3, 7(2H)-dicarboxylate]
  inhibition of XBP-1s expression (in words): little to no inhibitory effect
